# Results taken from patent US20260263449A1, “METHODS AND COMPOSITIONS FOR TREATING COCAINE ADDICTION” (The Jackson Laboratory, priority 2023, published 2026).
# Tested on: C57BL/6NJ mice
# Experiment: hypothermia bioassay for blood-brain barrier penetration in mice
# Conditions: intravenous injection, 10 mg/kg, temperature monitored for 120 minutes, vehicle 5% Kolliphor HS-15 and 5% NMP in saline
structure (smiles),measurement,value
"CN(C)CCc1c[nH]c2ccc(C[C@H]3COC(=O)N3)cc12 [zolmitriptan, reference compound]",central hypothermia (internal temperature),induced central hypothermia
